Legend:
[1] = Equilibrium surface tension, Kruss K-12 tensiometer with platinum Wilhelmy plate; assay type: physicochemical; details: 25±1° C.
Description: Equilibrium surface tensions were determined using a Kruss K-12 tensiometer with a platinum Wilhelmy plate, maintaining the temperature at 25±1° C. by means of a constant temperature circulating bath.

[2] = Dynamic surface tension, maximum bubble pressure method; assay type: physicochemical
Description: Solutions in distilled and deionized water of the surfactants of the invention were prepared. […] In a practical sense, high surface creation rates refer to rapid processes such as a spray or roller-applied coating, a high speed printing operation, or the rapid application of an agricultural product or a cleaner.

N,N′-dioctyl-N,N′-bis(1-deoxyglucityl)ethylenediamine [DODGEDA]
EST (0.01 WT %, mN/m) ([1]; 0.01 wt % in water): 30 mN/m | EST (0.1 WT %, mN/m) ([1]; 0.1 wt % in water): 27 mN/m | EST (1.0 WT %, mN/m) ([1]; 1.0 wt % in water): 27 mN/m | DST (0.1 WT %, mN/m) 0.1 b/s ([2]; 0.1 wt % in distilled and deionized water, 0.1 bubbles/sec): 31 mN/m | DST (0.1 WT %, mN/m) 10 b/s ([2]; 0.1 wt % in distilled and deionized water, 10 bubbles/sec): 70 mN/m | DST (0.5 WT %, mN/m) 0.1 b/s ([2]; 0.5 wt % in distilled and deionized water, 0.1 bubbles/sec): 38 mN/m | DST (0.5 WT %, mN/m) 10 b/s ([2]; 0.5 wt % in distilled and deionized water, 10 bubbles/sec): 62 mN/m

Reference: patent US20060013780A1, “N,N'-dialkyl derivatives of polyhydroxyalkyl alkylenediamines” (priority 2004, published 2006)
